The values that follow come from PubChem BioAssay AID1259374 (The Scripps Research Institute Molecular Screening Center, 2018).

Sequences of proteins named here, by UniProt entry; tags and fusion partners are left off. A change or cut given only in a name is not applied to a line headed by its entry.
UniProt O75030: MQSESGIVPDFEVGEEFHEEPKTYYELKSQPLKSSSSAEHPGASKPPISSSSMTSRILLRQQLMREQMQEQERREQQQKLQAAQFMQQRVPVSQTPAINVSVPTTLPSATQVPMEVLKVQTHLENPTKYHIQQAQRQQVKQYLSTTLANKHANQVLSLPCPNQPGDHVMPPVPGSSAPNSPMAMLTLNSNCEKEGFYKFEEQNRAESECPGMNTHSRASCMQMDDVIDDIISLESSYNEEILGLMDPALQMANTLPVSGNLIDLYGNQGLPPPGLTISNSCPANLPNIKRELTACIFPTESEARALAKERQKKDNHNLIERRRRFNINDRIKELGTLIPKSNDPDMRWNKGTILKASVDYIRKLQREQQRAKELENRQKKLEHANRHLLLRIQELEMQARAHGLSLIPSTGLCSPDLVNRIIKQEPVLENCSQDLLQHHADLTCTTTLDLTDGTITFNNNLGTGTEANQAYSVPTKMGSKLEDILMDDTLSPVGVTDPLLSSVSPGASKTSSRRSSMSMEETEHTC

The entries are a selection whose mix differs from that of the whole data set. Calls of active or inactive are those of the source. Cut-off read from the data, not from the text of the source: active = inhibition above about 50%; inactive = the rest.

The target in this test is Microphthalmia-associated transcription factor (Homo sapiens) (UniProt O75030). In words: MITF inhibitors, primary screen, biochemical, AlphaScreen, human (AID 1259374).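 Note: 0% = vehicle wells with protein.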 The following applies: AlphaScreen MITF homodimerization, bead proximity signal; at 2.6 µM; active compounds read high. A general note: Bead proximity is the source of the signal in Alpha formats.
In the case of `CCOP(=O)(Nc1ccc(Br)cc1)OCC`, the inhibition is inactive: 0.19%.

Regarding `CCCCOP(=O)(OCCCC)N(CC)CC`, the inhibition is inactive: -13.9%. Under `O=[N+]([O-])c1cc([N+](=O)[O-])c2nc(-c3ccc([N+](=O)[O-])o3)[nH]c2c1` stands inactive: 10.9%; under `O=C(COC(=O)C(O)(c1ccccc1)c1ccccc1)NCc1ccc2c(c1)OCO2`, inactive: -5.36%. To `CCOP(=O)(NNc1ccccc1)OCC` belongs inactive: 0.74%. On to `ClCCN1CCn2c1nc1ccccc12`, for which the inhibition was inactive: -0.94%.

Take `Cn1c(SCC(=O)c2ccccc2OC(F)F)nc2ccccc21`: the inhibition was inactive: -4.28%.

For the compound `CC(C)NC(=O)N(Cc1ccco1)C1CCN(CCc2ccccn2)CC1`, the inhibition was inactive: -1.74%. For the compound `Cc1cc(NP2(=O)C=C(c3ccccc3)OC(c3ccccc3)=C2)n[nH]1`, the inhibition was inactive: 5.01%.

Take `O=[N+]([O-])c1cc([N+](=O)[O-])c(SCCNc2ccccc2)c([N+](=O)[O-])c1`: the inhibition was inactive: 15%. For the compound `CCOP(=S)(OCC)c1cccc(C(=O)O)c1`, the inhibition was inactive: -10.2%. To `CCOc1ccc(NC(=O)c2cc([N+](=O)[O-])cc([N+](=O)[O-])c2)c([N+](=O)[O-])c1` belongs inactive: 17.8%; to `CCN/N=C/c1c([N+](=O)[O-])cc([N+](=O)[O-])cc1[N+](=O)[O-]`, inactive: 18.1%; to `ClC(Cl)(Cl)C1=NP2(=NC(c3ccccc3)=N1)OCCCO2`, inactive: 14.4%. On to `CC(=O)N(Cc1ccco1)C1CCN(CCc2cccs2)CC1`, for which the inhibition was inactive: -3.14%.

Turning to `Nc1c([N+](=O)[O-])cc(C(=O)c2cc([N+](=O)[O-])c(N)c([N+](=O)[O-])c2)cc1[N+](=O)[O-]`, the inhibition was inactive: -4.93%.

With `CCCCOP1(=S)N=C2c3ccccc3CN2c2cc(N(C)C)ccc21` (configuration not stated), the inhibition was inactive: 6.29%. To `O=P(Nc1ccccn1)(OCC(F)(F)F)Oc1ccccc1` (configuration not stated) belongs inactive: 8.75%; to `O=C(CCNCCCl)c1ccccc1`, inactive: 11.5%.

For `O=C(OC1CN2CCC1CC2)C1COc2ccccc2O1` (configuration not stated), the inhibition is inactive: 17.7%. Under `COP(=O)(NS(=O)(=O)c1ccc(Cl)cc1)OC` stands inactive: -1.17%; under `Cc1cc(NP2(=O)C=C(c3ccccc3)SC(c3ccccc3)=C2)n[nH]1`, inactive: 15%. Under `Cc1nc(Nc2cccc([N+](=O)[O-])c2)nc(Nc2cccc([N+](=O)[O-])c2)c1[N+](=O)[O-]` stands inactive: 12.6%; under `O=C(N/N=C/c1ccc([N+](=O)[O-])cc1)c1cc([N+](=O)[O-])cc([N+](=O)[O-])c1`, inactive: -2.1%; under `Cc1cc(C)nc(NNc2c([N+](=O)[O-])cc([N+](=O)[O-])c(C)c2[N+](=O)[O-])n1`, inactive: 1.74%.

Take `Cc1ccc(S(=O)(=O)N2C(=O)CSC2C(Cl)(Cl)Cl)cc1` (configuration not stated): the inhibition was inactive: 11.9%.

Consider `CCOP(=O)(Nc1cccc(C(F)(F)F)c1)OCC`, for which the inhibition was inactive: 1.01%. Under `O=C(OC1CN2CCC1CC2)c1cccc(F)c1` (configuration not stated) stands inactive: -4.58%. Take `O=C(COC(=O)C(O)(c1ccccc1)c1ccccc1)NCc1cccs1`: the inhibition was inactive: 5.06%. Regarding `O=P(/N=C(/N1CCOCC1)C(Cl)(Cl)Cl)(N1CCOCC1)N1CCOCC1`, the inhibition is inactive: -115%. Under `N=C(N)SCC(Br)CN1C(=O)c2ccccc2C1=O` (configuration not stated) stands inactive: -2.31%. Consider `CC(C)OC(=O)NC(SC#N)C(Cl)(Cl)Cl` (configuration not stated), for which the inhibition was inactive: 21.5%. To `Cc1cccc(NC2=NCC(CBr)S2)c1` (configuration not stated) belongs inactive: 21.7%; to `Cc1c([N+](=O)[O-])cc(C(=O)Nc2ccc([N+](=O)[O-])cc2)cc1[N+](=O)[O-]`, inactive: -1.56%. To `Cc1c([N+](=O)[O-])c([N+](=O)[O-])nn1CC(=O)Nc1cc(O)cc([N+](=O)[O-])c1` belongs inactive: 8.4%.

As for `CCOC(=O)c1ccccc1OP(=O)(OCC)SCC(C)C` (configuration not stated), the inhibition was inactive: -2.84%. Consider `CCc1nc2c(n1)c1c(non1O)c1c2no[n+]1[O-]`, for which the inhibition was inactive: 7.63%.

The term inhibition denotes the drop in the measured response relative to a control, in per cent.
